According to patent US10227344B2, “CK2 inhibitors, compositions and methods thereof” (Polaris Pharmaceuticals, Inc., priority 2016, dated 2019):

What was measured:
Format in all cases: cell-based
SKOV-3 = assay: Cancer cell panel, cell viability (resazurin): Ovarian, SKOV-3; details: SKOV-3 (Ovarian), 72 hours; labelled drug combined with Example 3
Description: (§1) Cells were plated in 96-well plates and treated for 72 hours with a serially diluted CK2 inhibitor or anti-cancer drug or their combination. The suspension cell lines were treated right after plating, while the adherent cells were allowed to attach overnight prior to the start of the treatment.
(§2) Cell viability was determined by adding resazurin to cell cultures and measuring fluorescence with a plate reader. Relative cell viability was calculated by dividing the cell viability signal from a test sample by that of a non-treated control. Reduction in relative cell viability after treatment with a combination of the CK2 inhibitor and anti-cancer drug was compared to that observed after treatment with each agent by itself (CK2 inhibitor or the anti-cancer drug). Bliss Independence and Highest Single Agent models were used to determine if there is synergy, additivity or antagonism between the CK2 inhibitor and an anti-cancer drug.

EOL-1 = assay: Cancer cell panel, cell viability (resazurin): Leukemia, EOL-1; details: EOL-1 (Leukemia), 72 hours; labelled drug combined with Example 3
Description: as §1, §2

A2780 = assay: Cancer cell panel, cell viability (resazurin): Ovarian, A2780; details: 72 hours, labelled drug combined with Example 3
Description: as §1, §2

BxPC3 = assay: Cancer cell panel, cell viability (resazurin): Pancreatic, BxPC3; details: 72 hours, labelled drug combined with Example 3
Description: as §1, §2

H1299 = assay: Cancer cell panel, cell viability (resazurin): NSCLC, H1299; details: 72 hours, labelled drug combined with Example 3
Description: as §1, §2

MDA-MB-231 = assay: Cancer cell panel, cell viability (resazurin): Breast, MDA-MB-231; details: MDA-MB-231 (Breast), 72 hours; labelled drug combined with Example 3
Description: as §1, §2

Caki-1 = assay: Cancer cell panel, cell viability (resazurin): Renal, Caki-1; details: Caki-1 (Renal), 72 hours; labelled drug combined with Example 3
Description: as §1, §2

DLD-1 = assay: Cancer cell panel, cell viability (resazurin): Colon, DLD-1; details: DLD-1 (Colon), 72 hours; labelled drug combined with Example 3
Description: as §1, §2

Caov-3 = assay: Cancer cell panel, cell viability (resazurin): Ovarian, Caov-3; details: Caov-3 (Ovarian), 72 hours; labelled drug combined with Example 3
Description: as §1, §2

Nc1nc(F)nc2c1ncn2[C@@H]1O[C@H](CO)[C@@H](O)[C@@H]1O [Fludarabine, fludarabine]
synergy, additivity or antagonism of the combination of Example 3 with the anti-cancer drug (SKOV-3): + + (Slight synergy relative to each agent alone (CI = 0.75-0.9 by Bliss Independence Model))
synergy, additivity or antagonism of the combination of Example 3 with the anti-cancer drug (EOL-1): + (Additive relative to each agent alone (CI = 0.9-1 by Bliss Independence Model and <0.9 by Highest Single Agent Model))
synergy, additivity or antagonism of the combination of Example 3 with the anti-cancer drug (A2780): + + (Slight synergy relative to each agent alone (CI = 0.75-0.9 by Bliss Independence Model))
synergy, additivity or antagonism of the combination of Example 3 with the anti-cancer drug (BxPC3): + (Additive relative to each agent alone (CI = 0.9-1 by Bliss Independence Model and <0.9 by Highest Single Agent Model))
synergy, additivity or antagonism of the combination of Example 3 with the anti-cancer drug (H1299): + (Additive relative to each agent alone (CI = 0.9-1 by Bliss Independence Model and <0.9 by Highest Single Agent Model))
synergy, additivity or antagonism of the combination of Example 3 with the anti-cancer drug (MDA-MB-231): + + (Slight synergy relative to each agent alone (CI = 0.75-0.9 by Bliss Independence Model))
synergy, additivity or antagonism of the combination of Example 3 with the anti-cancer drug (Caki-1): + (Additive relative to each agent alone (CI = 0.9-1 by Bliss Independence Model and <0.9 by Highest Single Agent Model))
synergy, additivity or antagonism of the combination of Example 3 with the anti-cancer drug (DLD-1): + (Additive relative to each agent alone (CI = 0.9-1 by Bliss Independence Model and <0.9 by Highest Single Agent Model))
synergy, additivity or antagonism of the combination of Example 3 with the anti-cancer drug (Caov-3): + (Additive relative to each agent alone (CI = 0.9-1 by Bliss Independence Model and <0.9 by Highest Single Agent Model))
